The results in this text go back to patent US7265147B2, “3,6-disubstituted azabicyclo [3.1.0]hexane derivatives useful as muscarinic receptor antagonists” (Ranbaxy Laboratories Limited, priority 2002, dated 2007).

The chains behind the UniProt entries cited, without tags or fusion partners.
UniProt P08483, whole entry: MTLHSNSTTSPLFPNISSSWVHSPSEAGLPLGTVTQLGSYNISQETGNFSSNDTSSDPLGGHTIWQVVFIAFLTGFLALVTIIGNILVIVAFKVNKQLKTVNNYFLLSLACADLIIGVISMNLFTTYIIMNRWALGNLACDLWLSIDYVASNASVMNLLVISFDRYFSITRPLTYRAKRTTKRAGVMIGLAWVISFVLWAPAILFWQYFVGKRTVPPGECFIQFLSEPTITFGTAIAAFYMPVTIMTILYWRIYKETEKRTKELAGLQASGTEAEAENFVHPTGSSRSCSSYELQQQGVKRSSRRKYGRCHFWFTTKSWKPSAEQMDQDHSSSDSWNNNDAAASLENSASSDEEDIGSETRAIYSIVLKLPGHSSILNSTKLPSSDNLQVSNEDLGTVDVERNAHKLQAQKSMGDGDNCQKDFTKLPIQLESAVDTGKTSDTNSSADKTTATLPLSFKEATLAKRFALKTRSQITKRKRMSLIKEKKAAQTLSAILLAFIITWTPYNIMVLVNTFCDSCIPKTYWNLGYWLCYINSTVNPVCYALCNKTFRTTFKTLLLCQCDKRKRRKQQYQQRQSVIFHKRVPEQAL

pKi: −log10 of the molar value.

For the test, the target named is M3 muscarinic receptor (Rattus norvegicus, UniProt P08483). In words: biochemical.
Broadly, the pKi is −log10 of the Ki, conventionally taken in molar units. In turn, `O=C(NCC#CCN1C[C@H]2C[C@H]2C1)C(O)(c1ccccc1)C1CCCCC1` (stereo partly drawn) [Compound No. 9, N-{4-[(1R, 5S)-3-azabicyclo[3.1.0]-hex-3-yl]but-2-ynyl}-2-hydroxy-2-cyclohexyl-2-phenylacetamide] showed a negative-log Ki (pKi) of 5.58. The compound `O=C(NCC#CCN1C[C@H]2C[C@H]2C1)C(O)(c1ccccc1)c1ccccc1` [Compound No. 11, N-{4-[(1R, 5S)-3-azabicyclo[3.1.0]-hex-3-yl]but-2-ynyl}-2-hydroxy-2,2-diphenylacetamide] gave a negative logarithm of the Ki (pKi) of 6.54. In the case of `O=C(NCC#CCN1C[C@H]2C[C@H]2C1)C(O)(c1ccc(F)cc1)c1ccc(F)cc1` [Compound No. 12, N-{4-[(1R,5S)-3-azabicyclo[3.1.0]-hex-3-yl]-but-2-ynyl}2-hydroxy-bis(4-florophenyl)acetamide] it was 6.44.
